## Binding of CDR-mutated scFvs to a peptide of the spike HR2 region

Binding partner: SARS-CoV-2 spike HR2 peptide, sequence PDVDLGDISGINAS.

The variants keep the heavy chain, the linker and the frameworks of Ab-14 (scFv order VH, three GGGGS repeats, VL).
VH: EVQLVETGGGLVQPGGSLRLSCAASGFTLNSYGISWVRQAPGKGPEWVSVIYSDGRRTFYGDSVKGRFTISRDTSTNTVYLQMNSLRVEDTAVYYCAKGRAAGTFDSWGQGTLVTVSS
VL: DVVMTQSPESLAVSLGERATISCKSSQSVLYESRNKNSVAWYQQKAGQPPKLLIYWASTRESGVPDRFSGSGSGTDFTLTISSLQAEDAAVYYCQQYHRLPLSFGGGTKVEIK

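Variants in AAYL50 differ from the parent at up to three CDR positions; double and triple changes were sampled at random. In AlphaSeq, yeast of one mating type display the scFv and yeast of the other type display the target. Binding brings cells together so that they mate, and sequencing counts the barcode pairs among the diploids. Read counts were normalised to the haploid input and turned into Kd by a linear fit to BCL2-family pairs of known affinity, for each replicate. Mating was done three times.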

Changes read parent residue, position, new residue, counted from the first residue of the VL shown.
The read-out is the apparent dissociation constant on a log10 scale (nM): the lower, the stronger.
The mean shown is taken over the replicates in which the pair was detected.
A pair that was not seen in any replicate is written "nd"; this usually means weak binding, but a binder can also be missed.
For reference, the parent read 0.65 as the reference entry and 1.68 as a member of this library.
Nonspecific signal, from three strains lacking the peptide, appeared in 18% of pairings of library AAYL50, centred on 4.19 (5% of these signals below 2.99); values are not corrected for it.

changes,"log10 Kd (nM), mean",seen in
Y31M Q95C L102R,2.03,3 of 3
V29Q Y31G A40K,nd,0 of 3
S28F K36F S62K,nd,0 of 3
K24V N35H S62E,1.36,3 of 3
S26C R60K S62M,3.56,3 of 3
S58L E61G Y97K,2.81,1 of 3
V29K Y31V S33F,3.60,2 of 3
S26H V39M L100R,1.73,3 of 3
N35K R60P R99M,nd,0 of 3
S28H E32F R60E,nd,0 of 3
S28G N35C Q95Y,3.57,1 of 3
S26C E61M R99Y,2.52,3 of 3
N35F W56R R99A,2.40,3 of 3
W56D Q96K L102E,1.79,3 of 3
T59D R99I S103I,nd,0 of 3
S33M K36P W56E,nd,0 of 3
K24S N37G T59F,nd,0 of 3
N37T S103T,2.00,3 of 3
S33R N37A L102N,5.09,1 of 3
L30G V39H Q96L,nd,0 of 3
A57L T59H L100V,4.36,2 of 3
S26V N35F R99A,3.09,3 of 3
L30I K36Y T59D,3.24,3 of 3
A57T Q96W L102K,2.80,3 of 3
E32H R34L S38K,3.32,1 of 3
N35H A40P T59G,nd,0 of 3
R34D A40P L100F,4.42,1 of 3
S38E W56S S62P,3.57,2 of 3
L30H K36D S38T,2.74,3 of 3
S25W S38R,2.70,3 of 3
V39C S58F T59G,2.76,1 of 3
S26L L30P S33N,0.69,3 of 3
Q27F R34D,1.01,3 of 3
S26W E61A,0.60,3 of 3
W56E A57I P101R,5.49,3 of 3
L30Q E32R P101Y,1.88,3 of 3
S28H N37I S58M,2.06,1 of 3
Q27C Q96K R99C,3.62,2 of 3
L30D A40S S58D,3.84,2 of 3
S38N R60A H98T,nd,0 of 3
S25E N37E A40L,nd,0 of 3
A40M E61C P101S,4.82,3 of 3
W56N H98Y,3.99,2 of 3
S25V R60Q Q96R,3.37,1 of 3
S26N S33C A57E,3.15,3 of 3
S26G E32R S103Y,3.28,3 of 3
T59V R60T Y97V,nd,0 of 3
S28T V29D P101N,nd,0 of 3
S25Q N35H Q95C,4.18,2 of 3
S33C K36A S58V,4.74,1 of 3

Values reported by Engelhart et al. 2022, doi:10.1038/s41597-022-01779-4 (FLAb copy).